scFv variants of Ab-14 (light chain) against a SARS-CoV-2 spike peptide

The target is the same throughout: PDVDLGDISGINAS, from the HR2 region of SARS-CoV-2 spike.

Ab-14 is the parent antibody, in scFv form: VH, then the linker GGGGSGGGGSGGGGS, then VL. The heavy chain is unchanged in all variants.
VH: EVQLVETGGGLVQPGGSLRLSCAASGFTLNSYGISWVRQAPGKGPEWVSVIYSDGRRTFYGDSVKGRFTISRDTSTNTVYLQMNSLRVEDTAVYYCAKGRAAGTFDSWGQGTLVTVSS
VL: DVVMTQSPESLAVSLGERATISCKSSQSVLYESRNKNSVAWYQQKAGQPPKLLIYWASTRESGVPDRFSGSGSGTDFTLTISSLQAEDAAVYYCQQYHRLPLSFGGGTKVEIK

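The variants were designed computationally from a first round of random CDR variants and then made and measured. Several design methods are mixed in this list. The scFvs were displayed on barcoded MATa yeast, the peptide on MATalpha yeast. After mating in shaken culture at 30 °C for 16 h, diploids were selected and their barcode pairs sequenced. Scores were corrected for input abundance and mapped to Kd with protein pairs of known affinity run in the same pool. Mating was done six times.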

Each variant is given by its three light chain CDRs, as the data file delimits them; those of the parent are KSSQSVLYESRNKNSVA, WASTRES, QQYHRLPLS. This list holds designs with more than six substitutions. Each Kd is an estimate from the mating assay, the geometric mean of the replicates in which the pair was seen; lower is stronger. A pair that was not seen in any replicate is written "not detected"; this usually means weak binding, but a binder can also be missed. A sequence measured in both rounds can read differently, since the two assays cover different ranges.

| CDR-L1 | CDR-L2 | CDR-L3 | Kd | detected |
|---|---|---|---|---|
| HITYGMQVMGRHSKSIA | QAETREK | QQYDRLPLI | 6.7 nM | 6 of 6 |
| MLLQSTMYGERNRNSVA | HANTRED | QQYHRLPLI | 8.3 nM | 6 of 6 |
| KLSGSVGYESRNPNNVA | NASTREL | QQYHRLPLS | 630 pM | 6 of 6 |
| HITSNMFGFGGVASNVA | ETNTLMV | QQYSKLPLM | 2.4 nM | 6 of 6 |
| KLSMVTGHMSVAKNNVA | EMETRLK | QQYNRLPLS | 1.0 nM | 6 of 6 |
| KLMNSLEAFKQWEDNVA | ETEHKVA | QQYYHLPLT | 10 nM | 6 of 6 |
| SISMSMAFLSRNKNSVA | ENSTRES | QQYHRLPLL | 12 nM | 6 of 6 |
| HIQEVDHQVENKYGNVA | DASEYVA | QQYFQLPIS | 9.2 nM | 6 of 6 |
| IVSQLMLWGMHVKNSIA | EAVTRVN | QQYDRLPLF | not detected | 0 of 6 |
| HISMSMNYLSVNKNSIA | EESTRED | QQYHRLPLS | 24 nM | 5 of 6 |
| HIQGYFTMPENANNNIA | EKHYQVR | QQYYRLPLA | 200 nM | 1 of 6 |
| IISGSMMMESRHKNSVA | NAETREY | QHYDRLPLS | 33 nM | 6 of 6 |
| NISHFMDVTAKKNNNVA | EMTMREM | QQYHHLPLS | 31 nM | 6 of 6 |
| HITMGMYVSGRYKSNIA | QAEMREK | QQYDRLPLM | 5.3 nM | 6 of 6 |
| MLPESMPQQIDNQNPVA | GAQHTAV | QQYGRLPLT | 12 nM | 6 of 6 |
| KLGSMVLLEHGNHNSIA | QQSTREE | QQYDRLPLS | 9.2 nM | 6 of 6 |
| KFSQGFLYEERQKNSVA | HASQRES | QQYHRLPLS | 1.6 nM | 6 of 6 |
| SMIPFDNQIMKGTNNIA | HTSVRAS | QQYARLPLV | 4.2 nM | 6 of 6 |
| TLSGHQYNYSQKKNSIA | EDNNIRL | QQYHRLPLM | not detected | 0 of 6 |
| MISDLTMYGSRNKNSVA | DLSVRGS | QQYHRLPLS | 1.1 nM | 6 of 6 |
| KVSMLGLYGQRNKGSVA | EASTRED | QQYHRLPLS | 3.7 nM | 6 of 6 |
| MISQLYNFGTFAINSVA | QASTRTE | QQYDRLPLI | 14 nM | 6 of 6 |
| MISDMGLHDSRIKNSVA | NNSTREA | QQYDRLPLS | 260 nM | 6 of 6 |
| SLVSKADYMDSERQNIA | NMDTRNT | QQYFHLPLT | 8.9 nM | 6 of 6 |
| MLSYNLHDMDRNKNNVA | EMNKSTT | QDYHRLPLA | 3.2 nM | 6 of 6 |
| TLTQVTMVESYNKGSVA | QASTRLE | QDYHRLPLS | 6.1 nM | 6 of 6 |
| SVRHPFQGENGMKASVA | NATIRDH | QQYFRLPLF | 1.4 nM | 6 of 6 |
| QIQGKLQEGGNQGANVA | QGVESKN | QQYYRLPLT | 6.3 nM | 6 of 6 |
| NLNTGYEGGFLNTDNIA | HGNMVEA | QQYYRLPLS | 900 pM | 6 of 6 |
| KLSMWTYGPTEDKYNVA | EDEMRWQ | QQYDKLPLI | 320 nM | 6 of 6 |
| KLLGQNLQNMDKLNSIA | EQSVHYQ | QQYGRLPFT | 3.4 nM | 6 of 6 |
| KLSWDDMSHFNTRSAIA | DMTMRAW | QQYNRLPLD | 26 nM | 6 of 6 |
| SLRQSTLYESRNKNSYA | WASTAES | QQYFRLPLS | not detected | 0 of 6 |
| MMSYGWLMGSRNKRNVA | DRETRES | QQYDRLPLS | 1.8 nM | 6 of 6 |
| TISQMFLGESRNRNSVA | QASTREP | QSYDRLPLS | 4.8 nM | 6 of 6 |
| KLEVSNLYESRNGNSVA | NASTRSS | QQYHRLPLS | 2.2 nM | 6 of 6 |
| HISSMDMHDGGIMHSIA | DTKITER | QQYMRLPLS | 2.5 nM | 6 of 6 |
| KISQSILFMTGNKNAIA | QMEMREE | QQYHRLPLS | 3.2 nM | 6 of 6 |
| TMNHELIYGVPMMNNVA | AGSQKLA | QQYYRLPLS | 1.0 nM | 6 of 6 |
| KISQMTRVGSTKGNSIA | EEVTRAK | QQYHRLPLA | 39 nM | 6 of 6 |
| KMQTLEYTANIGENSVA | DANVHVD | QQYFRLPLS | 3.9 nM | 6 of 6 |
| ALSQSMDMTSRNRNSVA | DLTTREN | QQYHRLPLS | 3.3 nM | 6 of 6 |
| MLTRFNLQNQGNSNNIA | DTNQVQE | QQYFRLPFA | not detected | 0 of 6 |
| TISQSAHMESHNKDNVA | DLNTRGQ | QQYDRLPLS | 17 nM | 6 of 6 |
| ILYDQVGTLSRNKNSVA | DNSTRES | QQYDRLPLS | 130 nM | 4 of 6 |
| SMGYALFHEDAKKKSIA | ENDVRVY | QQYAKLPLT | 780 pM | 6 of 6 |
| MINMEIGIEDRKWQAVA | SNSVRAS | QQYGRLPFS | 23 nM | 6 of 6 |
| KIERSTKGDRYFQYSIA | QGDIREK | QQYAQLPLT | 5.1 nM | 6 of 6 |
| KMEQGELYESRNKGSVA | GASVRES | QQYHRLPLS | 380 pM | 6 of 6 |
| KLSMITGHMQTTKNNVA | EMETREN | QQYNRLPLA | 4.1 nM | 6 of 6 |
| KVSQSVDGQSRNKNAVA | AASTRED | QQYHRLPLS | 1.5 nM | 6 of 6 |
| MLALPQKELGYAKDAIA | DGSIRLG | QQYHRLPLT | 1.3 nM | 6 of 6 |
| KVSEFMRGLMKMQDSIA | DNVTRSN | QQYDRLPLS | 690 nM | 4 of 6 |
| TLYGLSMSMSKQKNNVA | EMSTREN | QQYDRLPLI | 3.4 nM | 6 of 6 |
| HWSQSVPMGERNKNSVA | MASKRES | QQYHRLPLS | 56 nM | 5 of 6 |
| QIYQAMHTLMQVKNNIA | DVTNRNE | QQYHRLPLS | 35 nM | 4 of 6 |
| MMDNCQEGYYQKNNNVA | EMNARML | QQYGRLPLM | 16 nM | 6 of 6 |
| HMSQVTMYGYWQKNSVA | QTSTREE | QQYDRLPLS | 7.0 nM | 6 of 6 |
| HLKQVLNGVNKKMNSVA | HMNTREQ | QQYDHLPLV | 7.1 nM | 6 of 6 |
| MMSQVTGLGQRHRNNVA | QTSMREP | QQYDRLPLI | 8.5 nM | 6 of 6 |
| KLDLENGHENKKGQNIA | EASTAGD | QSYWRLPLY | 18 nM | 6 of 6 |
| KVSQGIFDGERNSHSIA | EVTELCT | QQYSRLPLE | 3.0 nM | 6 of 6 |
| ALQMERLGQKQYQNNIA | NQDIRTA | QQYYMLPLV | 540 pM | 6 of 6 |
| SLADAVHMESRNKNSVA | DNSTRES | QHYHRLPLS | 76 nM | 6 of 6 |
| FMEMDFDGNSVNRNSIA | SSEVVTR | QHYYRLPLS | not detected | 0 of 6 |
| KLSQKWLYESRNKNNVA | NASWREQ | QQYHRLPLS | 410 pM | 6 of 6 |
| HITYGMMLAGRHSSSIA | QAETRAK | QQYDRLPLI | 53 nM | 5 of 6 |
| NIYQAMHTLSQMKENVA | DVNERGD | QQYFRLPLS | 1.3 nM | 6 of 6 |
| QLHAYTQGFWRAMGNIA | DISYRVT | QQYGRLPLS | 330 nM | 4 of 6 |

The last 10 entries again:

{"CDR-L1": "MMSQVTGLGQRHRNNVA", "CDR-L2": "QTSMREP", "CDR-L3": "QQYDRLPLI", "Kd": "8.5 nM", "detected": "6 of 6"}
{"CDR-L1": "KLDLENGHENKKGQNIA", "CDR-L2": "EASTAGD", "CDR-L3": "QSYWRLPLY", "Kd": "18 nM", "detected": "6 of 6"}
{"CDR-L1": "KVSQGIFDGERNSHSIA", "CDR-L2": "EVTELCT", "CDR-L3": "QQYSRLPLE", "Kd": "3.0 nM", "detected": "6 of 6"}
{"CDR-L1": "ALQMERLGQKQYQNNIA", "CDR-L2": "NQDIRTA", "CDR-L3": "QQYYMLPLV", "Kd": "540 pM", "detected": "6 of 6"}
{"CDR-L1": "SLADAVHMESRNKNSVA", "CDR-L2": "DNSTRES", "CDR-L3": "QHYHRLPLS", "Kd": "76 nM", "detected": "6 of 6"}
{"CDR-L1": "FMEMDFDGNSVNRNSIA", "CDR-L2": "SSEVVTR", "CDR-L3": "QHYYRLPLS", "Kd": "not detected", "detected": "0 of 6"}
{"CDR-L1": "KLSQKWLYESRNKNNVA", "CDR-L2": "NASWREQ", "CDR-L3": "QQYHRLPLS", "Kd": "410 pM", "detected": "6 of 6"}
{"CDR-L1": "HITYGMMLAGRHSSSIA", "CDR-L2": "QAETRAK", "CDR-L3": "QQYDRLPLI", "Kd": "53 nM", "detected": "5 of 6"}
{"CDR-L1": "NIYQAMHTLSQMKENVA", "CDR-L2": "DVNERGD", "CDR-L3": "QQYFRLPLS", "Kd": "1.3 nM", "detected": "6 of 6"}
{"CDR-L1": "QLHAYTQGFWRAMGNIA", "CDR-L2": "DISYRVT", "CDR-L3": "QQYGRLPLS", "Kd": "330 nM", "detected": "4 of 6"}

Of ten entries with the parent sequence, four were seen in most replicates (averages 2.2 nM to 240 nM), three in one and three in none, so single entries are noisy. The authors averaged sequences with at least three values out of six and counted those with two or fewer as poor binders. Three control strains display no target. For all light chain designs, 4% of the pairings with them gave a signal, with a median of 430 nM and one signal in twenty below 38 nM, so weak values seen in few replicates may be background.

Source: Li et al. 2023 (doi:10.1038/s41467-023-39022-2), MIT Lincoln Laboratory and A-Alpha Bio; data file from the FLAb repository.